This passage reports IC50 results from ChEMBL document CHEMBL1133295, “Towards enzyme activated antiprostatic agents” (Bioorg Med Chem Lett, 2000).

The term IC50 denotes the midpoint of a concentration-inhibition curve. High values mean weaker potency, low ones greater potency.

The subject of one experiment is MCF7. Briefly: The compound was evaluated for cytotoxicity by assessing 3H thymidine uptake in MCF-7 cell line. The class given is functional, cell-based, Homo sapiens.
The next experiment has as its system LNCaP. In words: The compound was evaluated for cytotoxicity by assessing 3H thymidine uptake in LNCaP cell line. The class given is functional, cell-based, Homo sapiens.

In the case of `CN(CCCl)CCCl`, the IC50 in the experiment with MCF7 is 70 µM; in the experiment on LNCaP, 64 µM.
